Literature values in paper PMC9025555, “Chiral Recognition R- and RS- of New Antifungal: Complexation/Solubilization/Dissolution Thermodynamics and Permeability Assay” (Pharmaceutics, 2022).

Details: no reference given; cited from earlier work

Question: For OC[C@H]1O[C@@H]2O[C@H]3[C@H](O)[C@@H](O)[C@@H](O[C@H]4[C@H](O)[C@@H](O)[C@@H](O[C@H]5[C@H](O)[C@@H](O)[C@@H](O[C@H]6[C@H](O)[C@@H](O)[C@@H](O[C@H]7[C@H](O)[C@@H](O)[C@@H](O[C@H]8[C@H](O)[C@@H](O)[C@@H](O[C@H]1[C@H](O)[C@H]2O)O[C@@H]8CO)O[C@@H]7CO)O[C@@H]6CO)O[C@@H]5CO)O[C@@H]4CO)O[C@@H]3CO [β-cyclodextrin, β-Cyclodextrin], which aqueous solubility is on record?
Answer: Its aqueous solubility is “about 18.5 mg·mL^−1”.
